Literature values in US12253499B2, “Thin-layer chromatography system and method for assessing analyte concentrations in samples” (UCL BUSINESS LTD, priority 2017, dated 2025).

Details: in vivo

In the case of “cetuximab: cancer drug listed in Table D; not natively fluorescent, requires label”, the Window is listed as “at 250 mg/m^2 mg/m^2”.
